The target in this assay is reduced insulin (human recombinant insulin after addition of 20 mM DTT) (human) (UniProt P01308).

The chains behind the UniProt entries cited, without tags or fusion partners. Residues count along the entry.
UniProt P01308, 25-54, chain 1 of 2: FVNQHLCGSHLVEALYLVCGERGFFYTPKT
UniProt P01308, 90-110, chain 2 of 2: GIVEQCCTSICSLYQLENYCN

For “α-crystallin (from UniProt P02470 1-173; P02510 1-175) (complex)”, the C0.5: α-crystallin concentration at which Kagg/Kagg,0 = 0.5 in DTT-induced aggregation of insulin at 0.32 mg/mL amounted to 0.4 mg/mL and the C0.5: α-crystallin concentration at which Kagg/Kagg,0 = 0.5 in DTT-induced aggregation of insulin at 0.4 mg/mL is 0.62 mg/mL.

The record behind these values is paper PMC3000100.
